Data: PMC6149683, “In Vitro Investigation of the Interaction of Tolbutamide and Losartan with Human Serum Albumin in Hyperglycemia States” (Molecules : A Journal of Synthetic Chemistry and Natural …, 2017)

Legend:
[1] = test system: non-glycated human serum albumin (HSA); conditions: for quenching of HSA fluorescence: binary system, highest molar ratio drug:albumin (TB 20:1, LOS 10:1), albumin 5 × 10^−6 mol∙L^−1; for quenching of HSA fluorescence in the ternary system lower than in the binary system by: other drug at constant concentration (LOS for TB, TB for LOS)
[2] = test system: glycated human serum albumin (gHSAFRC); conditions: for Stern-Volmer constant KSV / Association constant Ka, Klotz Method / Association constant Ka, Scatchard Method / Hill's coefficient nH, Hill Method / fractional accessible protein fluorescence fa / mean number of drug molecules bound with one molecule of albumin n, Klotz Method / mean number of drug molecules bound with one molecule of albumin n, Scatchard Method: ± RSD; for decrease of gHSAFRC fluorescence (quenching): highest molar ratio drug:albumin (TB 20:1, LOS 10:1), albumin 5 × 10^−6 mol∙L^−1; for quenching of gHSAFRC fluorescence in the ternary system lower than in the binary system by: other drug at constant concentration (LOS for TB, TB for LOS)
[3] = binary system drug-HSA, λex = 275 nm, ± RSD
[4] = binary system drug-HSA, λex = 295 nm, ± RSD
[5] = ternary system with HSA: other drug constant at 5 × 10^−6 mol∙L^−1 (LOS(const) for TB, TB(const) for LOS), λex = 275 nm, ± RSD
[6] = ternary system with HSA: other drug constant at 5 × 10^−6 mol∙L^−1 (LOS(const) for TB, TB(const) for LOS), λex = 295 nm, ± RSD
[7] = ternary system with HSA: other drug constant at 5 × 10^−6 mol∙L^−1, 1:1 to albumin (LOS(const) for TB, TB(const) for LOS), λex = 275 nm, ± RSD
[8] = ternary system with HSA: other drug constant at 5 × 10^−6 mol∙L^−1, 1:1 to albumin (LOS(const) for TB, TB(const) for LOS), λex = 295 nm, ± RSD
[9] = binary system drug-gHSAFRC, λex = 275 nm
[10] = binary system drug-gHSAFRC, λex = 295 nm
[11] = ternary system with gHSAFRC: other drug constant at 5 × 10^−6 mol∙L^−1 (LOS(const) for TB, TB(const) for LOS), λex = 275 nm
[12] = ternary system with gHSAFRC: other drug constant at 5 × 10^−6 mol∙L^−1 (LOS(const) for TB, TB(const) for LOS), λex = 295 nm
[13] = ternary system with gHSAFRC: other drug constant at 5 × 10^−6 mol∙L^−1, 1:1 to albumin (LOS(const) for TB, TB(const) for LOS), λex = 275 nm

## CCCCc1nc(Cl)c(CO)n1Cc1ccc(-c2ccccc2-c2nnn[nH]2)cc1 [LOS, (2-butyl-4-chloro-1-{[2′-(1H-tetrazol-5-yl)-4-biphenylyl]methyl}-1H-imidazol-5-yl)methanol]
[1]; binary system drug-HSA, λex = 275 nm, Stern-Volmer modified by Lehrer, 37 °C, ± RSD
  Stern-Volmer constant KSV: 6.24 ± 0.02 × 10^4 mol^−1∙L
[1]; binary system drug-HSA, λex = 275 nm, kq=KSV/τ0, τ0 = 6.2 × 10^−9 s
  biomolecular quenching rate constant kq: 10.06 ± 0.03 × 10^12 mol^−1∙L∙s^−1
[1]; [3]
  Association constant Ka, Klotz Method: 8.64 ± 0.11 × 10^4 mol^−1∙L
  Association constant Ka, Scatchard Method: 8.13 ± 0.41 × 10^4 mol^−1∙L
  Hill's coefficient nH, Hill Method: 1.03 ± 0.03
  fractional accessible protein fluorescence fa: 0.47 ± 0.01
  mean number of drug molecules bound with one molecule of albumin n, Klotz Method: 0.98 ± 0.02
[1]; binary system drug-HSA, λex = 295 nm, Stern-Volmer modified by Lehrer, 37 °C, ± RSD
  Stern-Volmer constant KSV: 3.71 ± 0.01 × 10^4 mol^−1∙L
[1]; binary system drug-HSA, λex = 295 nm, kq=KSV/τ0, τ0 = 6.2 × 10^−9 s
  biomolecular quenching rate constant kq: 5.98 ± 0.02 × 10^12 mol^−1∙L∙s^−1
[1]; [4]
  Association constant Ka, Klotz Method: 4.69 ± 0.01 × 10^4 mol^−1∙L
  Association constant Ka, Scatchard Method: 4.62 ± 0.07 × 10^4 mol^−1∙L
  Hill's coefficient nH, Hill Method: 1.03 ± 0.01
  fractional accessible protein fluorescence fa: 0.72 ± 0.01
  mean number of drug molecules bound with one molecule of albumin n, Klotz Method: 1.02 ± 0.01
  mean number of drug molecules bound with one molecule of albumin n, Scatchard Method: 1.02 ± 0.02
[1]; λex = 275 nm
  quenching of HSA fluorescence: 36%
  quenching of HSA fluorescence in the ternary system lower than in the binary system by: 7%
[1]; λex = 295 nm
  quenching of HSA fluorescence: 47%
  quenching of HSA fluorescence in the ternary system lower than in the binary system by: 5%
[1]; ternary system with HSA: other drug constant at 5 × 10^−6 mol∙L^−1 (LOS(const) for TB, TB(const) for LOS), λex = 275 nm, kq=KSV/τ0
  biomolecular quenching rate constant kq: 2.79 ± 0.14 × 10^12 mol^−1∙L∙s^−1
[1]; [5]
  Association constant Ka, Klotz Method: 1.85 ± 0.09 × 10^4 mol^−1∙L
  Hill's coefficient nH, Hill Method: 0.80 ± 0.03
  fractional accessible protein fluorescence fa: 0.64 ± 0.05
  mean number of drug molecules bound with one molecule of albumin n, Klotz Method: 0.55 ± 0.04
[1]; ternary system with HSA: other drug constant at 5 × 10^−6 mol∙L^−1 (LOS(const) for TB, TB(const) for LOS), λex = 295 nm, kq=KSV/τ0
  biomolecular quenching rate constant kq: 3.76 ± 0.05 × 10^12 mol^−1∙L∙s^−1
[1]; [6]
  Association constant Ka, Klotz Method: 2.66 ± 0.03 × 10^4 mol^−1∙L
  Hill's coefficient nH, Hill Method: 0.90 ± 0.02
  fractional accessible protein fluorescence fa: 0.79 ± 0.02
  mean number of drug molecules bound with one molecule of albumin n, Klotz Method: 0.81 ± 0.02
[1]; [7]
  Association constant Ka, Scatchard Method: 2.10 ± 0.18 × 10^4 mol^−1∙L
  Stern-Volmer constant KSV: 1.73 ± 0.09 × 10^4 mol^−1∙L
[1]; [8]
  Association constant Ka, Scatchard Method: 2.64 ± 0.09 × 10^4 mol^−1∙L
  Stern-Volmer constant KSV: 2.33 ± 0.03 × 10^4 mol^−1∙L
[2]; binary system drug-gHSAFRC, λex = 275 nm, Stern-Volmer modified by Lehrer, 37 °C
  Stern-Volmer constant KSV: 6.92 ± 0.03 × 10^4 mol^−1∙L
[2]; binary system drug-gHSAFRC, λex = 275 nm, kq=KSV/τ0, τ0 = 6.2 × 10^−9 s
  biomolecular quenching rate constant kq: 11.16 ± 0.05 × 10^12 mol^−1∙L∙s^−1
[2]; [9]
  Association constant Ka, Klotz Method: 9.63 ± 0.08 × 10^4 mol^−1∙L
  Association constant Ka, Scatchard Method: 9.21 ± 0.40 × 10^4 mol^−1∙L
  Hill's coefficient nH, Hill Method: 0.97 ± 0.02
  fractional accessible protein fluorescence fa: 0.42 ± 0.01
  mean number of drug molecules bound with one molecule of albumin n, Klotz Method: 0.96 ± 0.02
[2]; binary system drug-gHSAFRC, λex = 295 nm, Stern-Volmer modified by Lehrer, 37 °C
  Stern-Volmer constant KSV: 4.15 ± 0.02 × 10^4 mol^−1∙L
[2]; binary system drug-gHSAFRC, λex = 295 nm, kq=KSV/τ0, τ0 = 6.2 × 10^−9 s
  biomolecular quenching rate constant kq: 6.69 ± 0.03 × 10^12 mol^−1∙L∙s^−1
[2]; [10]
  Association constant Ka, Klotz Method: 5.34 ± 0.01 × 10^4 mol^−1∙L
  Association constant Ka, Scatchard Method: 5.31 ± 0.11 × 10^4 mol^−1∙L
  Hill's coefficient nH, Hill Method: 0.97 ± 0.01
  fractional accessible protein fluorescence fa: 0.74 ± 0.01
  mean number of drug molecules bound with one molecule of albumin n, Klotz Method: 0.97 ± 0.01
  mean number of drug molecules bound with one molecule of albumin n, Scatchard Method: 0.97 ± 0.03
[2]; binary system, λex = 275 nm
  quenching of gHSAFRC lower than of HSA by: 3%
  decrease of gHSAFRC fluorescence (quenching): 33%
[2]; binary system, λex = 295 nm
  quenching of gHSAFRC greater than of HSA by: 3%
  decrease of gHSAFRC fluorescence (quenching): 50%
[2]; λex = 275 nm
  quenching of gHSAFRC fluorescence in the ternary system lower than in the binary system by: 3%
[2]; λex = 295 nm
  quenching of gHSAFRC fluorescence in the ternary system lower than in the binary system by: 4%
[2]; ternary system with gHSAFRC: other drug constant at 5 × 10^−6 mol∙L^−1 (LOS(const) for TB, TB(const) for LOS), λex = 275 nm, kq=KSV/τ0
  biomolecular quenching rate constant kq: 12.44 ± 0.14 × 10^12 mol^−1∙L∙s^−1
[2]; [11]
  Association constant Ka, Klotz Method: 11.17 ± 0.27 × 10^4 mol^−1∙L
  Hill's coefficient nH, Hill Method: 1.12 ± 0.06
  fractional accessible protein fluorescence fa: 0.37 ± 0.01
  mean number of drug molecules bound with one molecule of albumin n, Klotz Method: 1.01 ± 0.02
  mean number of drug molecules bound with one molecule of albumin n, Scatchard Method: 1.03 ± 0.12
[2]; ternary system with gHSAFRC: other drug constant at 5 × 10^−6 mol∙L^−1 (LOS(const) for TB, TB(const) for LOS), λex = 295 nm, kq=KSV/τ0
  biomolecular quenching rate constant kq: 5.42 ± 0.03 × 10^12 mol^−1∙L∙s^−1
[2]; [12]
  Association constant Ka, Klotz Method: 4.24 ± 0.02 × 10^4 mol^−1∙L
  fractional accessible protein fluorescence fa: 0.73 ± 0.01
[2]; [13]
  Association constant Ka, Scatchard Method: 10.37 ± 0.70 × 10^4 mol^−1∙L
  Stern-Volmer constant KSV: 7.71 ± 0.09 × 10^4 mol^−1∙L
[2]; ternary system with gHSAFRC: other drug constant at 5 × 10^−6 mol∙L^−1, 1:1 to albumin (LOS(const) for TB, TB(const) for LOS), λex = 295 nm
  Association constant Ka, Scatchard Method: 4.26 ± 0.07 × 10^4 mol^−1∙L

Where two headings read alike, the source gives them in different places.
